Data from patent US20260263628A1, “AN ORAL LIQUID COMPOSITION OF VINORELBINE” (INSTITUT GUSTAVE ROUSSY, priority 2022, published 2026).

Tested on: EpiOral® tissue models (normal human epithelial cells of oral phenotype)
Test: MTT viability assay on EpiOral tissue models
Details: second experiment, contact 1 h, 4 h, 18 h

SMILES: CCC1=C[C@@H]2CN(C1)Cc1c([nH]c3ccccc13)[C@@](C(=O)OC)(c1cc3c(cc1OC)N(C)[C@H]1[C@@](O)(C(=O)OC)[C@H](OC(C)=O)[C@]4(CC)C=CCN5CC[C@]31[C@@H]54)C2 [vinorelbine, vinorelbine ditartrate salt hydrate]
- ET-50 (exposure time at which percent viability has dropped to 50%): about 9.6 h

Where a name gives a salt, the structure may show the parent alone.
